In experiment [1] the target is Cyclin-dependent kinase 2/cyclin E (Homo sapiens, UniProt P24941). Nature of the experiment: Inhibition of [32P]ATP binding to Cyclin dependent kinase 2-cyclin E. It is filed as protein-complex assay. In a few lines: (§1)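 Human recombinant Cdk–cyclin holoenzymes expressed in insect cells via baculovirus. Each reaction held 20 ng enzyme, 1 µg GST-retinoblastoma substrate and inhibitor dilutions in 20 mM Tris pH 7.4, 50 mM NaCl, 1 mM DTT, 10 mM MgCl2. Started with [32P]ATP (0.25 µCi), at 25 µM for Cdk4 or 12 µM for Cdk2/E, Cdk2/A and Cdc2/B. Ran 15 min at 25 °C. Stopped with TCA and precipitated ≥1 h at 4 °C.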

In experiment [2] the target is Cyclin-dependent kinase 2/cyclin A (Homo sapiens, UniProt P24941). Description: Inhibition of [32P]ATP binding to Cyclin dependent kinase 2-cyclin A. The format is protein-complex assay. In outline: as §1

SMILES strings stand for the structures.

By IC50 is commonly meant the concentration needed to halve the response being measured. High values mean weaker potency, low ones greater potency.

As for `Cc1cc(=O)n(C2CCCC2)c2nc(Nc3ccc(N4CCNCC4)cc3)ncc12`, the IC50 in experiment [1] and in experiment [2] was greater than 5 µM in each case.

The values are drawn from ChEMBL document CHEMBL1143565, “Pyrido[2,3-d]pyrimidin-7-ones as specific inhibitors of cyclin-dependent kinase 4” (J Med Chem, 2005).
